Values of other authors, collected in US20210093715A1, “ANTI-ANGIOGENESIS THERAPY FOR THE TREATMENT OF BREAST CANCER” (Genentech, Inc., priority 2008, published 2021).

Experiments:
[1] = tested on: HER2 overexpressing metastatic breast cancer; conditions: 222 women with HER2 overexpressing metastatic breast cancer; cited from earlier work
[2] = tested on: HER2 overexpressing metastatic breast cancer; conditions: cited from earlier work

With “trastuzumab: recombinant humanized monoclonal antibody directed against HER2” as the substance, how does the confirmed complete responses [1] read?
The confirmed complete responses was “six”.

What about the “Overall response rate and time to progression” value ([2]; Herceptin + chemotherapy (paclitaxel or doxorubicin plus cyclophosphamide) vs chemotherapy alone) of the same substance?
The value was “significantly improved”.

And the overall survival ([2]; addition of Herceptin to chemotherapy)?
The overall survival was “prolonged overall survival”.
